Reference: patent publication US20100113370A1, “METHODS AND COMPOUNDS FOR MODULATING INFLAMMATORY PROCESSES” (priority 2007, published 2010)

Sequences of proteins named here, by UniProt entry; tags and fusion partners are left off. A change or cut given only in a name is not applied to a line headed by its entry.
UniProt O15439: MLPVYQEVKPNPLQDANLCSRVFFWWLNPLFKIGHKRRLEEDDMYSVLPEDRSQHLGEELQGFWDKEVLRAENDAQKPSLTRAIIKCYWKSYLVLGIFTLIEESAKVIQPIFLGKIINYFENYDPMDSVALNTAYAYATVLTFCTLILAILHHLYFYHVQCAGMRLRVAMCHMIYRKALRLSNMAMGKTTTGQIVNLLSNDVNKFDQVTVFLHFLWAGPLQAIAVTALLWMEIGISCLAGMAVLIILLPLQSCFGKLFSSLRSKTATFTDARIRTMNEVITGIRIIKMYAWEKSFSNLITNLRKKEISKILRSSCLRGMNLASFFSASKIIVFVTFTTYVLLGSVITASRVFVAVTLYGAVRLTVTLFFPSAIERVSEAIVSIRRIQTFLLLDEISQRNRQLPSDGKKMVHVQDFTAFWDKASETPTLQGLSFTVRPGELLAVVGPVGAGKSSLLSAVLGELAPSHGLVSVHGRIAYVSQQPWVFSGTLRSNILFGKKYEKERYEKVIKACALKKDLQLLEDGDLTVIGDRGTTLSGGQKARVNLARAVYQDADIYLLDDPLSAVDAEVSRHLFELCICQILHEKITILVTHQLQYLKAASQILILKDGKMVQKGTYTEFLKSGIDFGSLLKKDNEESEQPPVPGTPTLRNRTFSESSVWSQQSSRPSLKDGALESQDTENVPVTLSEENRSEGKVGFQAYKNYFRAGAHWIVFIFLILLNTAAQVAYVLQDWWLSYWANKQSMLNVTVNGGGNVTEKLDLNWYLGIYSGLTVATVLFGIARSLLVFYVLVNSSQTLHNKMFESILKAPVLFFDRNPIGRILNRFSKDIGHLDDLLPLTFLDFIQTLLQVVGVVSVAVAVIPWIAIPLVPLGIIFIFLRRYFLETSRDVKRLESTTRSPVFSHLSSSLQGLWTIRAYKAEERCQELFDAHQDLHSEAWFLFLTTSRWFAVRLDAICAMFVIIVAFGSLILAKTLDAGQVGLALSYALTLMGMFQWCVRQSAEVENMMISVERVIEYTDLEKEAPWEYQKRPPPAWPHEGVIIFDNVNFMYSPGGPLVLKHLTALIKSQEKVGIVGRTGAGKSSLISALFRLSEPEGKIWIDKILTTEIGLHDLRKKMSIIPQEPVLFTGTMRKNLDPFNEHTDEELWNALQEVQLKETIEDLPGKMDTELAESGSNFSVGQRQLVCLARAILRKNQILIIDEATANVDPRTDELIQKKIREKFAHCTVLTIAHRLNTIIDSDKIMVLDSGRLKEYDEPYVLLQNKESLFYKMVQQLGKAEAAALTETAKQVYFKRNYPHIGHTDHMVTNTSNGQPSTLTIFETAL

Target: ABCC4 (Homo sapiens, UniProt O15439)
Assay: Inhibition of ATP-dependent [3H]LTC4 transport into plasma membrane vesicles from human platelets
Assay type: biochemical
Design: expressed in transfected cells; host or cells: Chinese hamster lung V79 fibroblasts (V79-ABCC4), inside-out membrane vesicles
Settings: for ATP-dep. [^3H]LTC4 Transport (% of control): 100 nM [^3H]LTC4, 3 min at 37° C., absence of GSH, human platelet vesicles

CC(C)(O)c1ccccc1CC[C@@H](SCC1(CC(=O)O)CC1)c1cccc(/C=C/c2ccc3ccc(Cl)cc3n2)c1 [Montelukast]
inhibition at 20 µM (20 μM, vesicles from human platelets): 43%
ATP-dep. [^3H]LTC4 Transport (% of control) (compound 10 μM): 75 ± 4 % of control
ATP-dep. [^3H]LTC4 Transport (% of control) (compound 20 μM): 57 ± 4 % of control
